## Antibody variant affinities, Ab-14 heavy chain, assay B

Source: Li et al. 2023 (doi:10.1038/s41467-023-39022-2), MIT Lincoln Laboratory and A-Alpha Bio; data file from the FLAb repository.

Binding partner: SARS-CoV-2 spike HR2 peptide, sequence PDVDLGDISGINAS.

The variants keep the light chain, the linker and the frameworks of Ab-14 (scFv order VH, three GGGGS repeats, VL).
VH: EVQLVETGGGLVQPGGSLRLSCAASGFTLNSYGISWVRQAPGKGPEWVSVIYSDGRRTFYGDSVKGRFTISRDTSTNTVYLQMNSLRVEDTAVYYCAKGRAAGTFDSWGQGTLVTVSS
VL: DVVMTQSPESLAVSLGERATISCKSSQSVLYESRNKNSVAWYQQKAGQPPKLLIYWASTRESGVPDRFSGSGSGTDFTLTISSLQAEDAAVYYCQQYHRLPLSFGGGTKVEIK

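The starting antibody came from a phage panning campaign against this peptide. This is the validation round: designs drawn from the data on random variants, tested in the same kind of assay. Several design methods are mixed in this list. In AlphaSeq, yeast of one mating type display the scFv and yeast of the other type display the target. Mating (16 h, 30 °C) was followed by selection of diploids and sequencing of their barcodes. Each replicate has its own calibration line, from reference interactions of the BCL2 family. Mating was done six times.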

Variants are written as CDR1, CDR2 and CDR3 of the heavy chain (limits as in the source). Parent: GFTLNSYGIS, VIYSDGRRTFYGDSVK, GRAAGTFDS. Numbers give log10(Kd / nM), so 0 is 1 nM and 3 is 1 µM. Smaller is tighter. Replicates are averaged; those with no signal do not enter the mean. A pair that was not seen in any replicate is written "no signal"; this usually means weak binding, but a binder can also be missed. Entries are sorted by rising average, undetected variants last. Of ten entries with the parent sequence, four were seen in most replicates (averages 0.34 to 2.37), three in one and three in none, so single entries are noisy. A sequence that the file lists under several names has all its replicates pooled. Values of this round are not directly comparable with the first-round values of the same sequences. Three control strains display no target. For all heavy chain designs, 1% of the pairings with them gave a signal, with a median of 2.08 and one signal in twenty below 0.84, so weak values seen in few replicates may be background. In the paper, a design with two or fewer of six values counts as a poor binder.

CDR-H1,CDR-H2,CDR-H3,"mean, log10 nM",detected
GFNLDEYGIS,VIYADGRRTFYADSVK,GEVAGTFDV,-0.91,6 of 6
GFDLNEYGIS,VIYADGMRTAYADDVK,GHNAGTFDV,-0.84,6 of 6
GFDLNEYGIS,VIYADGRRTFYADSVK,GSTAGTFNM,-0.71,6 of 6
GFDLDEYGIS,VIYADGMRTAYADSVK,GQTAGTFDL,-0.70,6 of 6
GFDLNEYGIS,VIYADGKRTAYADSVK,GNVAGTFDF,-0.70,6 of 6
GFNLNEYGIS,VIYADGRRTFYADSVK,GGAAGTFDV,-0.60,6 of 6
GFDLNEYGIS,VIYADGRRTAYTDSVK,GTFAGTFDV,-0.59,6 of 6
GFDLNEYGIS,VIYADGRRTFYADSVK,GEIAGTFDN,-0.56,6 of 6
GFDLNEYGIS,VIYADGSRTAYSDSVK,GQTAGTFDV,-0.54,6 of 6
GFDLDEYGIS,VIYADGRRSAYHDSVK,GQLGGVSFV,-0.47,6 of 6
GFDLNEYGIS,VIYADGMRTFYADDVK,GGNAGTFDV,-0.46,6 of 6
GFDLNEYGIS,VIYADGRRTFYIDSVK,GNNAGTFDS,-0.44,6 of 6
GFDLNEYGIS,VIYADGVRTAYADSVK,GETAGTFDT,-0.43,6 of 6
GFDLNEYGIS,VIYADGMRTAYDDSVK,GQVAGTFDS,-0.32,6 of 6
GFTLDQYGIS,VIYSDGRRTFYTDSVK,GRAAGTFDS,-0.32,6 of 6
GFDLNEYGIS,VIYADGRRTFYSDSVK,GEVAGTFVT,-0.17,6 of 6
GFNLNSYGIS,VIYSDGRRTFYDDSVK,GQTAGTFDS,-0.16,6 of 6
GFSLNDYGIS,VIYSDGRRTFYGDQVK,GRTAGTFDS,-0.15,6 of 6
GFDLNSYGIS,VIYSDGKRTFYVDSVK,GRTAGTFDS,-0.13,6 of 6
GFDLNEYGIS,VIYADGMRTAYADSVK,GEVAGTFDA,-0.08,6 of 6
GFQLNDYGIS,VIYSDGRRTFYGDSVK,GREAGTFDT,-0.04,6 of 6
GFSLNSYGIS,VIYADGRRTFYGDSVK,GRAAGTFDA,0.03,6 of 6
GFTLNSYGIS,VIYSDGRRTFYSDSVK,GEVAGTFDT,0.04,6 of 6
GFSLNEFGIS,VIYSDGRRTFYTDSVK,GRFAGTFDS,0.04,6 of 6
GFPLNEYGIS,VIYSDGRRTFYGDSVK,GEAAGTFDS,0.13,6 of 6
GFDLNEYGIS,VIYADGQRTFYADDVK,GEVAGTFDL,0.26,6 of 6
GFQLNEYGIS,VIYSDGRRTFYGDSVK,GRQAGTFDA,0.29,6 of 6
GFSLNSYGIS,VIYSDGRRTFYVDSVK,GSQAGTFDS,0.34,6 of 6
GFSLNEYGIS,VIYSDGRRTFYHDSVK,GRAAGTFDT,0.34,6 of 6
GFDLNEYGIS,VIYADGQRTFYTDAVK,GEVAGTFDS,0.34,6 of 6
GFSLNEYGIS,VIYSDGRRTFYGDSVK,GKAAGTFDG,0.42,6 of 6
GFSLNSYGIS,VIYSDGRRTFYADSVK,GKNAGTFDS,0.55,6 of 6
GFDLNEYGIS,VIYADGSRTAYADSVK,GQNAGTFDL,0.59,6 of 6
GFTLNEYGIS,VIYSDGRRTFYKDSVK,GGAAGTFDS,0.66,6 of 6
GFELNSYGIS,VIYSDGRRTFYGDMVK,GRTAGTFDT,0.67,6 of 6
GFTLNEYGIS,VIYSDGRRTFYTDSVK,GQAAGTFDL,0.73,6 of 6
GFSLNSYGIS,VIYSDGRRTFYADMVK,GQAAGTFDS,0.86,6 of 6
GFELNMYGIS,VIYSDGRRTFYIDSVK,GRTAGTFDS,0.98,6 of 6
GFTLNDYGIS,VIYSDGRRTFYGDSVK,GREAGTFDA,1.00,6 of 6
GFTLNDYGIS,VIYSDGRRTFYDDSVK,GRAAGTFDS,1.02,12 of 12
GFNLNSYGIS,VIYSDGRRTFYQDSVK,GRTAGTFDS,1.04,6 of 6
GFDLDEYGIS,VIYADGRRTFYADSVK,GENAGTFDL,1.05,6 of 6
GFTLNEYGIS,VIYSDGRRTAYSDSVK,GRAAGTFDS,1.09,6 of 6
GFSLNEYGIS,VIYSDGRRTFYVDSVK,GNAAGTFDS,1.10,6 of 6
GFDIQDYGIS,VIYADGQRAAYADGVK,GLIAGIFNT,1.24,6 of 6
GFTLNSYGIS,VIYSDGRRTFYGDSVK,GRVAGSFDS,1.45,6 of 6
GTTLNSYGIS,VIYSDGRRTFYSDSVK,GRAAGTFDT,1.65,4 of 6
GFDLEEYGIS,VIYADGLRQYYKDNFK,GWNSGTIAV,1.68,1 of 6
GFQLNDYGIS,VIYSDGRRTFYGDSVK,GRAAGSIDS,1.72,6 of 6
GFTLNSYGIS,VIYSDGRRTFYSDKVK,GRAAGTFHS,1.83,1 of 6
GFNLNSYGIS,VIYSDGRRTFYGDQVK,GRLAGTFDS,1.89,5 of 6
GFGLNSYGIS,VIYSDGFGTFYGDSVK,GRAAGTFDS,2.18,1 of 6
GFKLDEYGIS,VIYADGHRVAYSNKVK,GDNMGNMVE,4.12,1 of 6
GFDLDEQGIS,VIYADGRRVGYTDSVK,GTNGSDRTL,no signal,0 of 6
GFDLEEYGIS,VIYADGSRTSYQESVK,GLVIGMLDM,no signal,0 of 6
GFTLDEYGIS,VIYADGMRTQYADQVK,GLLVNTVMT,no signal,0 of 6
GFTLNSYGIS,VIYSDGRRTFYGDNVK,GRMASAFDS,no signal,0 of 6
GFDLEEYGIS,VIYADGLRTMVLNSVK,GGLGQIFIV,no signal,0 of 6
GFDLNSYGIS,VIYSDGRRTFYGDSVK,GRAAWTFDK,no signal,0 of 6
GQDLKEYGIS,VIYADGKRSYYVQDVK,GTNVGQGTF,no signal,0 of 6
GFDLNEYGIS,VIYADGTRTAYANTVK,GKYVGVFVD,no signal,0 of 6
GFNLNSYGIS,VIYSDGRRTFYGDSVK,GSTAGTFDS,no signal,0 of 6
GFTLNEYGIS,VIYSDGRRTFYGESVK,GRAAVTFDA,no signal,0 of 6
GENLSEYGIS,VIYADGKKTAYSNAVK,GANGGIFNV,no signal,0 of 6
GFNLKEYGIS,VIYADGVRAQYAESVK,GTYSSKFGM,no signal,0 of 6
GFTLNDYGIS,VIYSDGRRTFYGDNVK,TRAPGTFDL,no signal,0 of 6
GFTLNEYGIS,VIYSDGRRTFYGDSVK,GRAALTFDG,no signal,0 of 6
GFTLNSYGIS,VIYADGRRTFYGFSVK,GRAAGTFDS,no signal,0 of 6
GFTLNSYGIS,VIYSDGRRTFYGDRVK,GSWAGTFDS,no signal,0 of 6

Extract of 8 entries:

| CDR-H1 | CDR-H2 | CDR-H3 | mean, log10 nM | detected |
|---|---|---|---|---|
| GFDLNEYGIS | VIYADGSRTAYSDSVK | GQTAGTFDV | -0.54 | 6 of 6 |
| GFTLNDYGIS | VIYSDGRRTFYGDNVK | TRAPGTFDL | no signal | 0 of 6 |
| GFDLEEYGIS | VIYADGLRQYYKDNFK | GWNSGTIAV | 1.68 | 1 of 6 |
| GFDLDEYGIS | VIYADGRRTFYADSVK | GENAGTFDL | 1.05 | 6 of 6 |
| GFDLNEYGIS | VIYADGVRTAYADSVK | GETAGTFDT | -0.43 | 6 of 6 |
| GTTLNSYGIS | VIYSDGRRTFYSDSVK | GRAAGTFDT | 1.65 | 4 of 6 |
| GFDLDEYGIS | VIYADGMRTAYADSVK | GQTAGTFDL | -0.70 | 6 of 6 |
| GFDLNEYGIS | VIYADGMRTAYADSVK | GEVAGTFDA | -0.08 | 6 of 6 |